This assay deals with 5-hydroxytryptamine receptor 1A (Rattus norvegicus, UniProt P19327).

The chains behind the UniProt entries cited, without tags or fusion partners.
UniProt P19327, whole entry: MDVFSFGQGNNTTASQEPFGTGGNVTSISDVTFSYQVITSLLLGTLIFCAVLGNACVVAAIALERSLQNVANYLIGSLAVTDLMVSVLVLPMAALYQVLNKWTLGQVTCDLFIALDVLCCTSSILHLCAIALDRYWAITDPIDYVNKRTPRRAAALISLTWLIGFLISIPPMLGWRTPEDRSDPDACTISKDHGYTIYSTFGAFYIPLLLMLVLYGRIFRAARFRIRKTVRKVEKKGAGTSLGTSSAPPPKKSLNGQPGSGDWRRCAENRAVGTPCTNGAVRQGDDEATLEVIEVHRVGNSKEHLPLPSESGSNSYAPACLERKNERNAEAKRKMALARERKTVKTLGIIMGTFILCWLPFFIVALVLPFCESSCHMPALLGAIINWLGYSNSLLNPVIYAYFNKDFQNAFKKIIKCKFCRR

Structures are written as SMILES. pKi: −log10 of the molar value.

Usually pKi stands for the negative decadic logarithm of the Ki, by convention in mol/L. Regarding `NCCc1c[nH]c2ccc(O)cc12` [SEROTONIN], the pKi was 8.70.

The record behind these values is ChEMBL document CHEMBL1124834, “5-HT1 and 5-HT2 binding profiles of the serotonergic agents alpha-methylserotonin and 2-methylserotonin” (J Med Chem, 1990).
